Data: US10620188B2, “Using impedance-based cell response profiling to identify putative inhibitors for oncogene addicted targets or pathways” (ACEA Biosciences, Inc., priority 2002, dated 2020)

What was measured:
[1] = system: H1975; experiment: Impedance-based TCRP of H1975 cells, constitutive EGFR activation; format: cell-based; conditions: from 0 to 20 uM
[2] = system: A431; experiment: Impedance-based TCRP of A431 cells, constitutive EGFR activation; format: cell-based; conditions: from 0 to 20 uM

C=CC(=O)Nc1cccc(Oc2nc(Nc3ccc(N4CCN(C)CC4)cc3OC)ncc2Cl)c1 [WZ4002]
TCRP (Cell Index response) [1]: dose-dependent short-term and long-term decrease in Cell Index | TCRP (Cell Index response) [2]: dose-dependent short-term and long-term decrease in Cell Index
